Usually logP stands for the decadic logarithm of the partition coefficient of the neutral form, usually between octanol and water. Low readings indicate a more hydrophilic compound, high ones a more lipophilic compound.

The text below walks through data of ChEMBL document CHEMBL3585253, “Thiazolidine-2,4-dione derivatives: programmed chemical weapons for key protein targets of various pathological conditions” (2015).

The nature of data set [1]: Lipophilicity, log P of the compound. Conditions: octanol/water.
In a further data set the test system is Homo sapiens. Nature of the data set: Drug absorption in orally dosed human. As to conditions: in vivo, po.

In data set [1], `CCc1ccc(CCOc2ccc(CC3SC(=O)NC3=O)cc2)nc1` (stereo not drawn) yielded a lipophilicity (logP) of 3.17. Further, the Fa in the data set with Homo sapiens worked out at 83%.
For `COc1ccc(Oc2cc(N(C)CCOc3ccc(CC4SC(=O)NC4=O)cc3)ncn2)cc1` (stereo not drawn), in that order: 4.2 and 72%.
Take `Cc1c(C)c2c(c(C)c1O)CCC(C)(COc1ccc(CC3SC(=O)NC3=O)cc1)O2` (stereo not drawn): in data set [1], the logP was 4.16. Also, the Fa in the data set with Homo sapiens was 50%.
On the same counts, the results for `CN(CCOc1ccc(CC2SC(=O)NC2=O)cc1)c1ccccn1` (stereo not drawn) are 2.95 and 95%.
